US20200270233A1, “DHFR INHIBITORS, COMPOSITIONS, AND METHODS RELATED THERETO” (Vyera Pharmaceuticais LLC, priority 2017, published 2020)

The chains behind the UniProt entries cited, without tags or fusion partners. Where a name states a change or a piece, a line headed by the entry shows the natural chain unless it says otherwise.
UniProt P07382: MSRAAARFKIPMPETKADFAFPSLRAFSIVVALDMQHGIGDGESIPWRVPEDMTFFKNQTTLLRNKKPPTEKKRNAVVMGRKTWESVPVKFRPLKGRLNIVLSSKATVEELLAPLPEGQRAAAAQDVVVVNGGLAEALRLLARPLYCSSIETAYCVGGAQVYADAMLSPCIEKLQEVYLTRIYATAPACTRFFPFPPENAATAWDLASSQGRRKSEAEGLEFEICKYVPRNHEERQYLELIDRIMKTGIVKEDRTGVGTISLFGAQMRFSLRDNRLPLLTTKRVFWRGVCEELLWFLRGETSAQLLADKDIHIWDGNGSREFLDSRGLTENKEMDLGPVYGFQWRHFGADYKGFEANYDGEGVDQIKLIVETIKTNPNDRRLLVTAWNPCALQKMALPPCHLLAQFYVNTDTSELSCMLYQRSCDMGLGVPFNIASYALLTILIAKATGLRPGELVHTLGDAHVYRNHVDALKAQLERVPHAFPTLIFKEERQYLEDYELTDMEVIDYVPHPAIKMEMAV

Molecular target: L. major DHFR (lmDHFR) (Leishmania major, UniProt P07382)
Test: biochemical

CCc1nc(N)nc(N)c1-c1ccc(Cl)cc1 [pyrimethamine, reference compound]
IC50: 5.62 µM
